A short description of one data set: solubility in water. Conditions: 25° C. and normal pressure.
Data set [1] can be described thus: thermodynamic stability of the hydrates. Conditions: compared with the monohydrate.
The conditions of data set [2]: cited from earlier work.
A short description of data set [3]: differential thermal analysis (DTA measurement), guideline VDI 2263. To be noted: closed glass ampoule filled with nitrogen.
The mark [4] stands for this setting: background, prior art (Schwartz et al.).

Read-outs that look alike come from different tables or passages of the source.

As for “dihydrate of 1,2-cyclohexanediaminplatinum(II)-bis-(4-methylbenzenesulfonate)”, the solubility in water entry in the data set “solubility in water” is given as “approx. 90 mg/ml”. Also, the thermodynamic stability entry in data set [1] is reported as “thermodynamically more stable than the monohydrate”.

For “dinitrato(1,2-diaminocyclohexane)platinum(II)”, the solubility in water entry in data set [2] (setting [4]) was “approx. 0.5 mg/ml”; in data set [2] (room temperature and normal pressure, prior art compound), “approx. 0.5 mg/ml”. In data set [3] (at start of exothermic behaviour, 3K/min), this substance displayed a heat tone of 1.175 J/g. The “start of exothermic behaviour” value in data set [3] (heating rate 3K/min, room temperature to 450° C., two samples) was determined as 170 °C.

Consider “monohydrate of 1,2-cyclohexanediaminplatinum(II)-bis-(4-methylbenzenesulfonate)”, for which the solubility in water result in data set [2] (25° C. and normal pressure, known according to the prior art) is “approx. 3 mg/ml”; in data set [2] (setting [4]), 3000 µg/mL.

These data come from patent publication US9365601B2, “1,2-cyclohexanediaminplatinum(II)-bis-(4-methylbenzenesulfonate) and the hydrates thereof” (dated 2016).
